Protein sequences, listed by entry. Tags and fused reporters are not part of them.
UniProt P27338, whole entry: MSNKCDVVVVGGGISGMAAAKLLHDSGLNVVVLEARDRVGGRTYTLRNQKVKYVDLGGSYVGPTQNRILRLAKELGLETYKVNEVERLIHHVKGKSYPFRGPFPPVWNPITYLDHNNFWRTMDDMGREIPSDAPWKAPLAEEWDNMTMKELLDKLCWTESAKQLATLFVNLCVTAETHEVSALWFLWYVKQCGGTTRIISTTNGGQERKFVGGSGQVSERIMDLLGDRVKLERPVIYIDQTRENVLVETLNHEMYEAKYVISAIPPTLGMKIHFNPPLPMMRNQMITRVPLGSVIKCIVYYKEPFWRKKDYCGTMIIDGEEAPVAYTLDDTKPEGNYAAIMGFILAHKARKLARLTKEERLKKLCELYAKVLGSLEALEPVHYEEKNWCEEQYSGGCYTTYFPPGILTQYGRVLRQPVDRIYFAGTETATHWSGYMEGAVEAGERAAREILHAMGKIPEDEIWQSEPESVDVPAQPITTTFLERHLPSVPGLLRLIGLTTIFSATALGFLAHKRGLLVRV

In ChEMBL document CHEMBL3739402, “Chromanones: selective and reversible monoamine oxidase B inhibitors with nanomolar potency” (Medchemcomm, 2015):

How the values were obtained:
Homo sapiens = organism: Homo sapiens; assay: Selectivity index, ratio of IC50 for human MAO-A to IC50 for human MA)-B by Amplex Red MAO assay
[1] = biological target: Amine oxidase [flavin-containing] B (Homo sapiens, UniProt P27338); assay: Inhibition of human MAO-B using p-tyramine as substrate assessed as production of H2O2 from p-tyramine incubated for 15 mins by Amplex Red MAO assay

| SMILES | Ratio IC50 (Homo sapiens) | IC50 [1] |
| --- | --- | --- |
| CC1(C)CC(=O)c2ccc(OCc3cccc(F)c3)cc2O1 | > 1530 |  |
| O=C1CCOc2cc(OCc3cccc(Br)c3)ccc21 | > 3310 |  |
| CC1(C)CC(=O)c2ccc(OCc3ccc(Cl)cc3)cc2O1 | > 2260 | 44.2 nM |
| CC1(C)CC(=O)c2ccc(OCc3cccc(Br)c3)cc2O1 | > 1920 |  |
| CC1(C)CC(=O)c2ccc(OCc3ccc(C#N)cc3)cc2O1 | > 1440 |  |
| O=C1CCOc2cc(OCc3ccccc3F)ccc21 | > 1700 |  |
| Cc1ccc(COc2ccc3c(c2)OC(C)(C)CC3=O)cc1 | > 883 |  |
| O=C1CCOc2cc(OCc3ccc(Br)cc3)ccc21 | > 4640 |  |
| CC1(C)CC(=O)c2ccc(OCc3ccc(F)cc3)cc2O1 |  | 10.3 nM |
| CC1(C)CC(=O)c2ccc(OCc3ccccc3F)cc2O1 | > 1450 |  |
| O=C1CCOc2cc(OCCc3ccccc3)ccc21 | 36.2 |  |
| Cc1ccc(COc2ccc3c(c2)OCCC3=O)cc1 | > 1100 |  |
| O=C1CCOc2cc(OCc3cccc(Cl)c3)ccc21 | > 2840 |  |
| CC1(C)CC(=O)c2ccc(OCc3cccc(Cl)c3)cc2O1 | > 1080 |  |
| CC1(C)CC(=O)c2ccc(OCc3ccccc3)cc2O1 | > 1030 |  |
| O=C1CCOc2cc(OCCCc3ccccc3)ccc21 | 3.9 |  |
| N#Cc1ccc(COc2ccc3c(c2)OCCC3=O)cc1 | > 2110 |  |
| O=C1CCOc2cc(OCc3ccccc3)ccc21 | > 1740 |  |
| Cc1cccc(COc2ccc3c(c2)OC(C)(C)CC3=O)c1 | > 1020 |  |
| O=C1CCOc2cc(OCc3ccc(Cl)cc3)ccc21 | > 2990 | 33.5 nM |
| CC1(C)CC(=O)c2ccc(OCc3ccc(Br)cc3)cc2O1 | > 2200 |  |
